Common to all, as to format: biochemical
Test [1] addresses c-Abl1 (Homo sapiens, UniProt P00519). Description: Inhibition of Abelson protein kinase c-Abl1 (FAM-labeled peptide assay, IC50).
Test [2] has as its target c-Abl2 (Homo sapiens, UniProt P42684). The experiment in a line: Inhibition of Abelson protein kinase c-Abl2 (FAM-labeled peptide assay, IC50).
In test [3] the target is c-Kit (Homo sapiens, UniProt P10721). Description: Inhibition of c-Kit (FAM-labeled peptide assay, IC50).

The chains behind the UniProt entries cited, without tags or fusion partners. Residues count along the entry.
UniProt P00519, whole entry: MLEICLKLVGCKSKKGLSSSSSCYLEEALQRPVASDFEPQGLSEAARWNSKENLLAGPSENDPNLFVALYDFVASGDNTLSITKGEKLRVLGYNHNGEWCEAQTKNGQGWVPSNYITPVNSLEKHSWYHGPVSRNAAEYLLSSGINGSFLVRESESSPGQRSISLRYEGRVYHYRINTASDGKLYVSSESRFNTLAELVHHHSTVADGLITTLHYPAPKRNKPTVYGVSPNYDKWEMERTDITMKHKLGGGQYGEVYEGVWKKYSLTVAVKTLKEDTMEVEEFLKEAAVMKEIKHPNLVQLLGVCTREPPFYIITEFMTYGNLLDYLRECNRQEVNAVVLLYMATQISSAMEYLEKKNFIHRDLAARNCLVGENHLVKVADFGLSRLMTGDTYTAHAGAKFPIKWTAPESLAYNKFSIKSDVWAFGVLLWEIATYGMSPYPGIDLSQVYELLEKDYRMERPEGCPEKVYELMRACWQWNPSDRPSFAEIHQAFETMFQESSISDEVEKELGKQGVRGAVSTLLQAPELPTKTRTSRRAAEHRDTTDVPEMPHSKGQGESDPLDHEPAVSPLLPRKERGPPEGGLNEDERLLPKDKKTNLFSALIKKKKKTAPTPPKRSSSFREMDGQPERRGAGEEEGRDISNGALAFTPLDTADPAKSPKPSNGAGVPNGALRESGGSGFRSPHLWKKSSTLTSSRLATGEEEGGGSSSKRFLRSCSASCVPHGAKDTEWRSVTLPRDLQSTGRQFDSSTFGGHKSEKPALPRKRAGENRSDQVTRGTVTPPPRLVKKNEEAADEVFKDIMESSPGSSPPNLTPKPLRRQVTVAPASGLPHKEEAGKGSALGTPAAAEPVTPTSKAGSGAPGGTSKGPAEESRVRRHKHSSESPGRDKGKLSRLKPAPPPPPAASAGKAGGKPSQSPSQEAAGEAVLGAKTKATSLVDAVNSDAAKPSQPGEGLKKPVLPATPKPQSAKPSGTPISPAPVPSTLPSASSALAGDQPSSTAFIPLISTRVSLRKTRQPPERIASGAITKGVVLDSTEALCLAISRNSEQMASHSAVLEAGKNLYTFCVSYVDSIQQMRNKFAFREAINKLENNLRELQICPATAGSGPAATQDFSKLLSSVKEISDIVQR
UniProt P42684, whole entry: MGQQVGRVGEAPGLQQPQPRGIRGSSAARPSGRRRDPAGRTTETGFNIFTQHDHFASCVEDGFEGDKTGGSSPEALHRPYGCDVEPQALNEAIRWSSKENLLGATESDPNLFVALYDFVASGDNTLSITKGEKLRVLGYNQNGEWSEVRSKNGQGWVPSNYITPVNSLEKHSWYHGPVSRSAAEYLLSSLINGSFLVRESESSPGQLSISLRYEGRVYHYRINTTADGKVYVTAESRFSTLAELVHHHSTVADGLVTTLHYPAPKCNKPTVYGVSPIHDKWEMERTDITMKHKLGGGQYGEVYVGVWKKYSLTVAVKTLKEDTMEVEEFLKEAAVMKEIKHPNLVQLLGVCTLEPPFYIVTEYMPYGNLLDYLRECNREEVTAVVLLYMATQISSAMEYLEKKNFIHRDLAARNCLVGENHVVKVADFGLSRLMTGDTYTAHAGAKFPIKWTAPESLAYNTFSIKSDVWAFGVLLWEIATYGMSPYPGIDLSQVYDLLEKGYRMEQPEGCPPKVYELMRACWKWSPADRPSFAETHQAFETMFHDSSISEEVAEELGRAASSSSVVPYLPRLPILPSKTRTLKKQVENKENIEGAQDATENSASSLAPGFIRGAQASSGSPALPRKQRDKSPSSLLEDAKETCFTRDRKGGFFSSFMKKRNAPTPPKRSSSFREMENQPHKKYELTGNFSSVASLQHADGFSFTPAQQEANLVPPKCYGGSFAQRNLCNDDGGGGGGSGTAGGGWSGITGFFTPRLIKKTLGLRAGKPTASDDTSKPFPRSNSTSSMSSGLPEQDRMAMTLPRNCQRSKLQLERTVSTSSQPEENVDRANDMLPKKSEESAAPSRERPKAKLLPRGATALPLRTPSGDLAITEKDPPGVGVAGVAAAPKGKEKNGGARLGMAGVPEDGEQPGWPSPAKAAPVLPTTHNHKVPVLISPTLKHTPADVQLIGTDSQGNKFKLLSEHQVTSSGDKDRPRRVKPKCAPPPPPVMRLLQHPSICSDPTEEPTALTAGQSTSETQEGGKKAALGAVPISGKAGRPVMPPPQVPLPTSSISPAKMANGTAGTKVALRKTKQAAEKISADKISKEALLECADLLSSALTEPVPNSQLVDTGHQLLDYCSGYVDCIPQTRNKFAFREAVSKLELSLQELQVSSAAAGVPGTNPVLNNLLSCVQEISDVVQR
UniProt P10721, 26-976: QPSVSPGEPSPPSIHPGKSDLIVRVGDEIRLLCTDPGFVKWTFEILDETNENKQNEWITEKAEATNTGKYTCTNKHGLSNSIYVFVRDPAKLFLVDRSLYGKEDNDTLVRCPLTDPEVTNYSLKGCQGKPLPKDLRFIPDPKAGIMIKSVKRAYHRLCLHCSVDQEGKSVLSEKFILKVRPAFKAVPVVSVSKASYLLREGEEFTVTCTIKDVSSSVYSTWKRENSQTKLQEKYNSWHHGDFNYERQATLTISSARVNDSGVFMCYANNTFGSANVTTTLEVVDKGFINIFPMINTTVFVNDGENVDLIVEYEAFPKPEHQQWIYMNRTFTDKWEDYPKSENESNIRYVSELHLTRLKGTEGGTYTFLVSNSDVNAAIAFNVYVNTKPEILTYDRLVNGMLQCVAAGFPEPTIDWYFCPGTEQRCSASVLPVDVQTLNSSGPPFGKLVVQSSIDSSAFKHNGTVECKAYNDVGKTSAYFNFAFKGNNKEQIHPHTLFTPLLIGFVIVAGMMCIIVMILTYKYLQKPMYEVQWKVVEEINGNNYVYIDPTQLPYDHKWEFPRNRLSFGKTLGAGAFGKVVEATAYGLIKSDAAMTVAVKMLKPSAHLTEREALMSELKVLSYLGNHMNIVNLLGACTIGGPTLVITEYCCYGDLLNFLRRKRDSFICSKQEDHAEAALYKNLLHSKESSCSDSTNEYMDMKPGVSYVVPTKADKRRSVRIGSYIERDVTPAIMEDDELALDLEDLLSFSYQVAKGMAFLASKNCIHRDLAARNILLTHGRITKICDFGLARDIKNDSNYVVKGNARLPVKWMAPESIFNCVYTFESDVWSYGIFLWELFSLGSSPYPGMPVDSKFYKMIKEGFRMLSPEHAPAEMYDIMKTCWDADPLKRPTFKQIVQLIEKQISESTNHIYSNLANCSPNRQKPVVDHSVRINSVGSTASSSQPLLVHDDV

The structures appear in SMILES notation.

The term IC50 denotes the concentration that inhibits the measured activity by half. A high value points to a need for much substance.

For the compound `Cc1ccc(NC(=O)c2ccc(CN3CCN(C)CC3)cc2)cc1Nc1nccc(-c2cncc(-c3ccn[nH]3)c2)n1` [Compound 107], the IC50 stood at 45.2 nM in test [1], 67 nM in test [2] and 7.2 nM in test [3].

Values taken from patent US12629371B2, “Compositions and methods for inhibiting kinases” (Inhibikase Therapeutics, Inc., priority 2016, dated 2026).
